Structures can show the parent of a compound that is named as a salt.
Experiment: Acute single dose toxicity in isotonic saline (ip, iv, sc)
Assay type: in vivo, Swiss CD1 mice
Conditions: 5 days
Description: In vivo toxicity of an analogue is measured through administration of a range of doses to animals, typically mice, by a route defined in part by the intended clinical use. […]. Analogues less toxic than indolicidin are preferred.
The acute, single dose toxicity of various indolicidin analogues is tested in Swiss CD1 mice using various routes of administration. In order to determine the inherent toxicities of the peptide analogues in the absence of any formulation/delivery vehicle effects, the peptides are all administered in isotonic saline with the final pH between 6 and 7.
Intraperitoneal route. […]. […] The LD50 values are calculated using the method of Reed and Muench (J. of Amer. Hyg. 27: 493-497, 1938).
Intravenous route. […]. […].
Subcutaneous route. The toxicity of MBI 11CN is also determined after subcutaneous (SC) administration. […]. After administration, the mice are observed for a period of 5 days. None of the animals died at any of the dose levels within the 5 day observation period. […]. […] These symptoms are reversible, disappearing in all mice by the second day of observations.

Compound: CC[C@H](C)[C@H](N)C(=O)N[C@@H](CC(C)C)C(=O)N[C@@H](CCCCN)C(=O)N[C@@H](CCCCN)C(=O)N[C@@H](Cc1c[nH]c2ccccc12)C(=O)N1CCC[C@H]1C(=O)N[C@@H](Cc1c[nH]c2ccccc12)C(=O)N[C@@H](Cc1c[nH]c2ccccc12)C(=O)N1CCC[C@H]1C(=O)N[C@@H](Cc1c[nH]c2ccccc12)C(=O)N[C@@H](CCCNC(=N)N)C(=O)N[C@@H](CCCNC(=N)N)C(=O)N[C@@H](CCCCN)C(N)=O [MBI 11CN HCl, I L K K W P W W P W R R K]
- LD50: 5.8 mg/kg
- MTD: <4 mg/kg
